The target of experiment [1] is human huMAO-A (Homo sapiens, UniProt P21397). Conditions: at 10 µM concentration, mean ± SD.
The target of experiment [2] is horse serum eqBChE (Equus caballus, UniProt P81908).
Experiment [3] addresses electric eel eeAChE (Electrophorus electricus, UniProt O42275).
The target in experiment [4] is human huMAO-B (Homo sapiens, UniProt P27338).
[5] abbreviates: at 10 µM concentration, mean ± SD.

The chains behind the UniProt entries cited, without tags or fusion partners. Residues count along the entry.
UniProt P21397, whole entry: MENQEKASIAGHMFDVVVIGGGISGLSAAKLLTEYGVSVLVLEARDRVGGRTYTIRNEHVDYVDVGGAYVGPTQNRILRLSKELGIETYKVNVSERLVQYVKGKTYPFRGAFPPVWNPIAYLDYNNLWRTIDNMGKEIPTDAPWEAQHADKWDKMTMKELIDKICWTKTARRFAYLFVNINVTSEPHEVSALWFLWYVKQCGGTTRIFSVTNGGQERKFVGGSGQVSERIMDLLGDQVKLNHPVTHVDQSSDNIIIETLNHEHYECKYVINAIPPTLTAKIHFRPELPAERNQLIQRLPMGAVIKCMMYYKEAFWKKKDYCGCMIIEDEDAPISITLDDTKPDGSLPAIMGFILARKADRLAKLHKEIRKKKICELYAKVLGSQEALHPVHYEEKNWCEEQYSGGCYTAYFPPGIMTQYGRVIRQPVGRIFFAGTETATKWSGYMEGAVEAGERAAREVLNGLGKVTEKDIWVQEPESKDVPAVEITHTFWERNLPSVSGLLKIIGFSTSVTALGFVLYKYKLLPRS
UniProt P81908, whole entry: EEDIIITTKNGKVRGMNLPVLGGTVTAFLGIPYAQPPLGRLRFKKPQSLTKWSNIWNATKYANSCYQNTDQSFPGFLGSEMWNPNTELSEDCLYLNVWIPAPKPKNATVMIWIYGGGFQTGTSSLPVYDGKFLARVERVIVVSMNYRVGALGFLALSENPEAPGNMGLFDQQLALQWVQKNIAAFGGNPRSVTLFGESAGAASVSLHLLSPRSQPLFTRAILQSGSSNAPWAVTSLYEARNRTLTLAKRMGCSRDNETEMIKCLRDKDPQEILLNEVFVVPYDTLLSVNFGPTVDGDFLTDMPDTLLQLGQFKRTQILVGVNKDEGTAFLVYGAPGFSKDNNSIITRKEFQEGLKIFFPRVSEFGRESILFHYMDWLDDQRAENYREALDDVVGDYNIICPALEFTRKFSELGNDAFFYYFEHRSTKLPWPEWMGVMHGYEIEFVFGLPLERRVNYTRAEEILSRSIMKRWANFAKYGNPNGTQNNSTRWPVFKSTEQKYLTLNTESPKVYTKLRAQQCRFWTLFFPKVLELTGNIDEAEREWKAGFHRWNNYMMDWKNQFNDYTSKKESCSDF
UniProt O42275, 24-633 limits assumed: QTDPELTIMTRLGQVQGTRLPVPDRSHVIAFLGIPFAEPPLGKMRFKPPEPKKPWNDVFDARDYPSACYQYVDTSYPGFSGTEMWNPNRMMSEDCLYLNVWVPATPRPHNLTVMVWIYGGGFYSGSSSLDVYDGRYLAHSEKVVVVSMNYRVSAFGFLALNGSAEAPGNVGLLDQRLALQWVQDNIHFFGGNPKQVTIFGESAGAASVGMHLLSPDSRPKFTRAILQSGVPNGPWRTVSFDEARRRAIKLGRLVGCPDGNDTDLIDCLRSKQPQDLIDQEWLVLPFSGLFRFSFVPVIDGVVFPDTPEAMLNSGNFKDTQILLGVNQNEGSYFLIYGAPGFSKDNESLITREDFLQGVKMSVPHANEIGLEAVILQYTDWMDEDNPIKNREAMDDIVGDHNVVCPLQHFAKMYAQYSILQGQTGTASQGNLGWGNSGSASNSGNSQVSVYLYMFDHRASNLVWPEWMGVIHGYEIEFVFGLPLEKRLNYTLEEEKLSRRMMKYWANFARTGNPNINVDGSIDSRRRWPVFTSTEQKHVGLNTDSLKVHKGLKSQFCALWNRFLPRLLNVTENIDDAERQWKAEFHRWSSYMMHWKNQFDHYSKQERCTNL
UniProt P27338, whole entry: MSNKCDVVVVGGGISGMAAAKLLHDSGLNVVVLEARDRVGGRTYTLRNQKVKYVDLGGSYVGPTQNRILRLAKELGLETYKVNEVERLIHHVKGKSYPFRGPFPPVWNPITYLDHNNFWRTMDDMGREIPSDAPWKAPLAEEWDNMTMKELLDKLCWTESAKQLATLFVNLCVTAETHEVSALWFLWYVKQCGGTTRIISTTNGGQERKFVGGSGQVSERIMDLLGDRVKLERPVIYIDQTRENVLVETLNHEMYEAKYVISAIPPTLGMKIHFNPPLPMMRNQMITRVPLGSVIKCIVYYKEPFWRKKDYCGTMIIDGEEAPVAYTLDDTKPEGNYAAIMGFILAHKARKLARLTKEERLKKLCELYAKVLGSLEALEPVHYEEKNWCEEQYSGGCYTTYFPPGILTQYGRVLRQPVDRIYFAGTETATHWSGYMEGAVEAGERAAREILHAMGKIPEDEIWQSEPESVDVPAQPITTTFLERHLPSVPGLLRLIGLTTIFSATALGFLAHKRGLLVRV

The source of these data is publication PMC12562640, “Investigating Amphoteric 3,4′-Biscoumarin-Based ortho-[(Dialkylamino)methyl]phenols as Dual MAO and ChE Inhibitors” (International Journal of Molecular Sciences, 2025).

In the case of `CC(C)CN(Cc1c(O)ccc2c(-c3cc4ccccc4oc3=O)cc(=O)oc12)CC(C)C`, the huMAO-A % inhibition entry in experiment [1] was “[27 ± 2] %”. For the same molecule, the IC50 (commonly the midpoint of a concentration-inhibition curve) in experiment [2] (read-out: eqBChE IC50, mean ± SD of three independent determinations, ~10 means 50–60% inhibition at 10 µM) came out at 10 µM; in experiment [3] it was 10 µM. Moreover, the huMAO-B % inhibition entry in experiment [4] (setting [5]) was “[28 ± 4] %”.
For `CN(Cc1ccccc1)Cc1c(O)ccc2c(-c3cc4ccccc4oc3=O)cc(=O)oc12`, in experiment [1], the huMAO-A % inhibition entry is “[28 ± 4] %”. In experiment [2] (setting [5]), the eqBChE % inhibition result was “[31 ± 4] %”. In addition, in experiment [3] (setting [5]), the eeAChE % inhibition result is “[40 ± 9] %”. The molecule also had an IC50 in experiment [4] of 10 µM.
